How the values were obtained:
[1] = molecular target: MASP-2 (CCP1-CCP2-SP) (Homo sapiens (Human), UniProt O00187); details: for MASP-2 vs. thrombin selectivity: MASP-2 inhibition versus thrombin; for Ki: read-out: MASP-2 Ki
[2] = molecular target: mMASP-2 (Mus musculus (Mouse), UniProt Q91WP0); assay: Enzymatic inhibition of mMASP-2; format: biochemical; details: read-out: mMASP-2 Ki
[3] = molecular target: human α-thrombin (Homo sapiens (Human), UniProt P00734); assay: Enzymatic assay for thrombin; format: biochemical; details: read-out: Thrombin Ki

By UniProt entry, the sequences of proteins in these tests, tags left out. Residues count along the entry.
UniProt O00187, 445-686 limits assumed: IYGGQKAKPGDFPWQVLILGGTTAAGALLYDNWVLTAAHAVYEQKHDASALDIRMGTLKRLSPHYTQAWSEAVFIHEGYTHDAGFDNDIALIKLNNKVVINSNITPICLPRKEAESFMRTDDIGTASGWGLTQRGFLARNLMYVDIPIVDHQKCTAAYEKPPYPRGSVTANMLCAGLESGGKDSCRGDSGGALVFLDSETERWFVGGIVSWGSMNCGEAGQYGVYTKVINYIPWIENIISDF
UniProt Q91WP0, 20-685 limits assumed: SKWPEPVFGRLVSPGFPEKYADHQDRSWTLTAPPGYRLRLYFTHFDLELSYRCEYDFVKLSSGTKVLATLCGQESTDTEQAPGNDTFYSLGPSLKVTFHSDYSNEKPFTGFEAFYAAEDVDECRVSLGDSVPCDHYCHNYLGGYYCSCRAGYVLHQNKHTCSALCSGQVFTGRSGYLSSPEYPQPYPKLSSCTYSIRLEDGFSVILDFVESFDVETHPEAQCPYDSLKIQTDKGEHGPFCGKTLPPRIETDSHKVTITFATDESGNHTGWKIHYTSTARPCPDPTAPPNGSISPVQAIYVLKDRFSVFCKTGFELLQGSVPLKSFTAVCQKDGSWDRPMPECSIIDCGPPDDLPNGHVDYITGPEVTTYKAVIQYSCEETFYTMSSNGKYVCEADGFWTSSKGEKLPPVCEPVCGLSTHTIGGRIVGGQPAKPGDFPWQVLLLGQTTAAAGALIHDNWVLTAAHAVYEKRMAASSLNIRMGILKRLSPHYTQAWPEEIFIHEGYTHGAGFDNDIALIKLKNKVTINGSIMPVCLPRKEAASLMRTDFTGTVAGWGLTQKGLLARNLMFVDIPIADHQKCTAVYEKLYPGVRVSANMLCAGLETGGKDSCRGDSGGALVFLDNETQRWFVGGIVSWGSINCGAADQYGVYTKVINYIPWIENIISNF

SMILES	MASP-2 vs. thrombin selectivity [1]	Ki [1] [nM]	Ki [2] [nM]	Ki [3] [nM]
C[C@H](NC(=O)[C@@H](CCc1ccccc1)NCc1cc2ccccc2[nH]1)C(=O)NCc1ccc(C(=N)N)cc1	−− (less than 1.0-fold)	< 500	< 500	< 500
C[C@H](NC(=O)[C@@H](CCc1ccccc1)NCc1ccc(F)cc1)C(=O)NCc1ccc(C(=N)N)cc1	−− (less than 1.0-fold)	< 500		< 500
COC(=O)CCCCCN[C@H](CCc1ccccc1)C(=O)N[C@@H](C)C(=O)NCc1ccc(C(=N)N)cc1	* (1.0 to 5.0-fold)	< 500		< 500

— patent US11584714B2
